Literature values as cited in patent US20130210771A1, “METHODS AND COMPOSITIONS FOR TREATING CANCERS” (IRM LLC, priority 2007, published 2013).

Amino acid sequences for entries named in this document (tags omitted).
UniProt O60674, whole entry, species assumed: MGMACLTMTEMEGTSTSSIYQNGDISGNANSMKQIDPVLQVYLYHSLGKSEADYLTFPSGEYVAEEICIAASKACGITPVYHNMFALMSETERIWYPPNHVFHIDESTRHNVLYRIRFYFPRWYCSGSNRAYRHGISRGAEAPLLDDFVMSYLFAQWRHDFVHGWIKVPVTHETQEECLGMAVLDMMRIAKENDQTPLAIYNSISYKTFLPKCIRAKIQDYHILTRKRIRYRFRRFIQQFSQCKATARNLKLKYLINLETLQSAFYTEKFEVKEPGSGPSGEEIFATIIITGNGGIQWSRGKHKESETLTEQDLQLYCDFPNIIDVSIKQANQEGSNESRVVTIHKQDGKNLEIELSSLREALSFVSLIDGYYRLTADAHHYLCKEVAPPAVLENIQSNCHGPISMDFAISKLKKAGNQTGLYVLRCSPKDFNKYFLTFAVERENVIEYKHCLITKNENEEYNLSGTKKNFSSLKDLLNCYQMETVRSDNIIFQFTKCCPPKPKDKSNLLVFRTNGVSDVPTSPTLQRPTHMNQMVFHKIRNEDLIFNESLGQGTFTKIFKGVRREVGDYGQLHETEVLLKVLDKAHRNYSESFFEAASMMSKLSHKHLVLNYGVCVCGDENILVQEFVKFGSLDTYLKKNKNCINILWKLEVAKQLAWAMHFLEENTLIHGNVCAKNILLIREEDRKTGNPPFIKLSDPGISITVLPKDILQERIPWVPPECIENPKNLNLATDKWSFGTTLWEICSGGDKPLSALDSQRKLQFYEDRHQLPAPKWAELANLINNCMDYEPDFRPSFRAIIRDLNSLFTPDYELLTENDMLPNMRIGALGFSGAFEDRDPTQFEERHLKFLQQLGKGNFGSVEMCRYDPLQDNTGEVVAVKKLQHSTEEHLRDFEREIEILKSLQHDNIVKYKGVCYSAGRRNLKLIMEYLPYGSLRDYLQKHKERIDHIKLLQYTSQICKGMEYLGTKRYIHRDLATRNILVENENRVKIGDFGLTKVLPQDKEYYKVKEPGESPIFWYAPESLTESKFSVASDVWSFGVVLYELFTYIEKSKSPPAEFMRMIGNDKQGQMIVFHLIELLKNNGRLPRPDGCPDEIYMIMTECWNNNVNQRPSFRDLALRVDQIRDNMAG

Target: JAK2 (Homo sapiens, UniProt O60674)
Conditions: cited from earlier work

## Cc1cc(Nc2cc(N3CCN(C)CC3)nc(Sc3ccc(NC(=O)C4CC4)cc3)n2)n[nH]1 [MK-0457]
  inhibition of JAK2: moderate to strong inhibitor
